Patent US8287850B2, “Conjugates of hydroxyalkyl starch and a protein, prepared by reductive amination” (Fresenius Kabi Deutschland GmbH, priority 2004, dated 2012)

Experiments:
[1] = PK study in mice: antiviral activity of pooled serum after i.v. injection; assay type: in vivo; conditions: 30 μg/kg i.v.
Experimental: Antiviral activity of pooled serum was tested in the antiviral assay. Serum was collected from two mice (female BALB/c mice, aged 8 weeks) at each time, which were sacrificed 2 h, 4 h, 12 h, and 24 h post i.v.-injection of 30 μg/kg (based on the protein content) of IFN-alpha or the IFN-alpha-HES conjugate.
The serum samples were thawed and thoroughly homogenized by vortexing (and diluted). Serial two-fold dilutions were prepared in cell culture medium. A vial of Intron A (diluted) was thawed and thoroughly homogenized by vortexing. Serial two-fold dilutions were prepared in cell culture medium.
The EC50-dilutions in the CPE-assay were determined from dose response curves of a 1:2 dilution series as described in example 9.
The half life of the materials was determined compared to unmodified starting material and Pegasys. The half life was calculated from a semi-logarithmic plot of the EC50-dilution vs. time post injection.

[2] = rabbit, in vivo, iv
VSV in MDBK cells [3] = assay type: cell-based
VSV in MDBK cells [4] = conditions: standard's stated activity; cited from earlier work

In the case of “IFN-alpha-HES 30/0.8: IFN-alpha conjugated with aldehydoHES of example 8.2.16 (MW 29.3 kD, DS 0.86)”, the “half-life (semi-logarithmic plot of the EC50-dilution vs. time post injection)” value [1] was “approx. 6.5 h”.

For “IFN-alpha-HES 100/0.7: IFN-alpha conjugated with aldehydoHES of example 8.2.18 (MW 97.9 kD, DS 0.76)”, the “half-life (semi-logarithmic plot of the EC50-dilution vs. time post injection)” value [1] was about 6.8 h.

With “IFN-alpha-HES (example 8.3.2, entry B of the table): IFN-alpha conjugated with aldehydo-HES of example 8.2.4 (AldehydoHES10/0.7)” the “half-life (semi-logarithmic plot of the EC50-dilution vs. time post injection)” value [1] was “approx. 3 h”.

With “IFN-alpha-HES (example 8.3.2, entry D of the table): IFN-alpha conjugated with aldehydo-HES of example 8.2.8 (AldehydoHES30/0.7); sample of the rabbit PK study” the “half-life compared to the starting material” value [2] was “distinct prolongation of half-life”, the “half-life t½, non compartment model” value [2] was 42.7 h and the “half-life t½, one compartment model” value [2] was 7.7 h. For the same substance, the “half-life (semi-logarithmic plot of the EC50-dilution vs. time post injection)” value [1] was “approx 5 h”.

For “IFN-alpha-HES (example 8.3.4): IFN-alpha conjugated with aldehydo-HES of example 8.2.14 (MW 56.8 kD, DS 0.76), 16 mg scale”, the “half-life (semi-logarithmic plot of the EC50-dilution vs. time post injection)” value [1] was “approx. 7 h” and the “antiviral activity compared to Intron A” value (VSV in MDBK cells [3]; from CPE50 concentration) was “more than 25%”.

In the case of “Intron A: IFN-alpha 2b, Schering-Plough; internal lab reference [reference compound]”, the specific activity (VSV in MDBK cells [3]; calibrated against NIH-standard rhIFN-alpha 2a) was 8,487,000 IU/ml.

For “NIH-standard: NIH-standard rhIFN-alpha 2a (NIAID, NIH, Gxa01-901-535)”, the specific activity (VSV in MDBK cells [4]) is listed as 9,000 IU/ml.

With “PegIntron: commercially available PEGylated IFN-alpha (SP) [reference compound]” the “half-life (semi-logarithmic plot of the EC50-dilution vs. time post injection)” value [1] was “approx. 3.6 h”.

For “mock incubated IFN-alpha-HES: reaction control: IFN-alpha incubated with non-oxidized HES10/0.4 (Mw 7.6 kD; DS 0.41)”, the “in vitro bioactivity compared to unmodified starting material” value (VSV in MDBK cells [3]; mock incubation (reaction control)) was “did not affect the in vitro bioactivity”.

Where two headings read alike, the source gives them in different places.
